Laboratory results as given in PubChem BioAssay AID798 (PCMD, 2007).
This is a selection; strong and weak results do not stand in their true shares. Some tests of the compounds listed are not included; inactive here does not mean inactive elsewhere. The source made the active and inactive calls.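 The calls were made as follows: active = inhibition of at least 40%; inactive = inhibition below 40%.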

Sequences of proteins named here, by UniProt entry; tags and fusion partners are left off. Residues count along the entry.
UniProt P03951, 19-387 limits assumed: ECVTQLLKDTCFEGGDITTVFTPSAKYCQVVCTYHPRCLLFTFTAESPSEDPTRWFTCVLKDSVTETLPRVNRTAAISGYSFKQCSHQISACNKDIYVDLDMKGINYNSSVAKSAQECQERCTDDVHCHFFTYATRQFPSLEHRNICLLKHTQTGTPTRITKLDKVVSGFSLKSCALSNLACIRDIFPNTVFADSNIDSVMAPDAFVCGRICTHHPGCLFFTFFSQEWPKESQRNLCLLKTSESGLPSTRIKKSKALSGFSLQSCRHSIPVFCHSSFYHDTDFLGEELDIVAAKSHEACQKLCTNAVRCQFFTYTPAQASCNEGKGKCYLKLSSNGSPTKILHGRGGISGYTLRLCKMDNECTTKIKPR
UniProt P03951, 388-625 limits assumed: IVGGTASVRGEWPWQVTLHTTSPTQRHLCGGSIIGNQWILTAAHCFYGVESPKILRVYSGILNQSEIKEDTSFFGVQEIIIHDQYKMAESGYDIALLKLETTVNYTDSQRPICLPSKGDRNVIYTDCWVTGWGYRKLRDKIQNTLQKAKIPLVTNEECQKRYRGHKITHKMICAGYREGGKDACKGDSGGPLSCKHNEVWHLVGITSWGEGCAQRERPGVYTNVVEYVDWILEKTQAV

Molecular target: Coagulation factor XI (Homo sapiens) (UniProt P03951)
Test: factor XIa enzyme inhibition, large library – biochemical, 1536-well, primary screen (AID 798);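 also: fluorescence of freed AMC excited at 355 nm; 0% = enzyme without compound and 100% = no enzyme blank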
Settings: purified FXIa, Boc-Glu-Ala-Arg-AMC fluorogenic substrate; at 5 µM; hits give high values

Structure (SMILES)	inhibition
CCN1CCCC(OC(=O)C2(O)c3ccccc3C=Cc3ccccc32)C1 (stereo unspecified)	inactive: 17.1%
C=CCN1CCN(CCOC(=O)C(O)(c2ccccc2)c2ccccc2)CC1	inactive: -3.86%
CN(C)C1CCCC1OC(=O)C(O)(c1ccccc1)c1ccccc1 (stereo unspecified)	inactive: 1.98%
Cc1ccccc1C(=O)NCC1(N2CCCCC2)CCCCC1	inactive: 3.25%
CC(C)N1C(=O)CC2(CCN(CCOC(=O)C(O)(c3ccccc3)c3ccccc3)CC2)C1=O	inactive: -1.1%
CCN(CC)CC(C)C(C)OC(=O)C(O)(c1ccccc1)c1ccccc1 (stereo unspecified)	inactive: -1.16%
O=C(NCC1(N2CCCCC2)CCCCC1)c1cc([N+](=O)[O-])ccc1Cl	inactive: 1.69%
CN(C)c1cccc(C(=O)NCC2(N(C)C)CCCCC2)c1	inactive: 7.2%
COc1ccc(Br)c(C(=O)NCC2(N3CCCCC3)CCCCC2)c1	inactive: 11.7%
O=C(OC1CN2CCC1CC2)C(CO)(c1ccccc1)c1ccccc1 (stereo unspecified)	inactive: 4.46%
COc1cccc(C(=O)NCC2(N3CCCCC3)CCCCC2)c1	inactive: -1.2%
